Test results: patent publication US10912763B2 (priority 2010, dated 2021)

Tested on: painful diabetic neuropathy
[1] = Study A, 40 μg once daily for 5 days
[2] = Study A, 120 μg once daily for 5 days
[3] = Study B, 80 μg once daily for 5 days
[4] = Study B, 200 μg once daily for 5 days
[5] = Study C, 100 μg once daily for 5 days

## CN(C)[C@]1(c2ccccc2)CC[C@]2(CC1)OCCc1c3cc(F)ccc3[nH]c12
100 μg, Study C
  TEAEs (%) Back pain: 0%
  TEAEs (%) Bacteriuria: 10.8%
  TEAEs (%) Cold sweat: 2.7%
  TEAEs (%) Constipation: 16.2%
  TEAEs (%) Dizziness: 18.9%
  TEAEs (%) Dyspepsia: 5.4%
  TEAEs (%) ECG QT prolonged: 0%
  TEAEs (%) Fatigue: 13.5%
  TEAEs (%) Headache: 8.1%
  TEAEs (%) Hyperglycemia: 2.7%
  TEAEs (%) Nausea: 13.5%
  TEAEs (%) Oral discomfort: 0%
  TEAEs (%) Oropharyngeal Pain: 5.6%
  TEAEs (%) Peripheral oedema: 0%
  TEAEs (%) Pruritus: 10.8%
  TEAEs (%) Vision blurred: 2.7%
  TEAEs (%) Visual impairment: 2.7%
  TEAEs (%) Vomiting: 13.5%
  Total number of TEAEs: 91
  Total number of TEAEs, at least possibly related (in brackets): (52)
120 μg, Study A
  Number of events leading to withdrawal: 0
  Number of serious TEAEs: 0
  Subjects with TEAEs (number): 17
  Subjects with TEAEs (percent): (65.4%)
  TEAEs (%) Back pain: 0%
  TEAEs (%) Bacteriuria: 0%
  TEAEs (%) Cold sweat: 0%
  TEAEs (%) Constipation: 7.7%
  TEAEs (%) Dizziness: 23.1%
  TEAEs (%) Dyspepsia: 0%
  TEAEs (%) ECG QT prolonged: 3.8%
  TEAEs (%) Fatigue: 3.8%
  TEAEs (%) Headache: 23.1%
  TEAEs (%) Hyperglycemia: 3.8%
  TEAEs (%) Nausea: 23.1%
  TEAEs (%) Oral discomfort: 0%
  TEAEs (%) Oropharyngeal Pain: 0%
  TEAEs (%) Peripheral oedema: 3.8%
  TEAEs (%) Pruritus: 0%
  TEAEs (%) Vision blurred: 0%
  TEAEs (%) Visual impairment: 0%
  TEAEs (%) Vomiting: 7.7%
  Total number of TEAEs: 54
  Total number of TEAEs, at least possibly related (in brackets): (36)
200 μg, Study B
  Number of events leading to withdrawal: 0
  Number of serious TEAEs: 0
  Subjects with TEAEs (number): 19
  Subjects with TEAEs (percent): (82.6%)
  TEAEs (%) Back pain: 0%
  TEAEs (%) Bacteriuria: 0%
  TEAEs (%) Cold sweat: 4.3%
  TEAEs (%) Constipation: 4.3%
  TEAEs (%) Dizziness: 34.8%
  TEAEs (%) Dyspepsia: 0%
  TEAEs (%) ECG QT prolonged: 0%
  TEAEs (%) Fatigue: 21.7%
  TEAEs (%) Headache: 17.4%
  TEAEs (%) Hyperglycemia: 0%
  TEAEs (%) Nausea: 39.1%
  TEAEs (%) Oral discomfort: 0%
  TEAEs (%) Oropharyngeal Pain: 0%
  TEAEs (%) Peripheral oedema: 0%
  TEAEs (%) Pruritus: 0%
  TEAEs (%) Vision blurred: 13.0%
  TEAEs (%) Visual impairment: 8.7%
  TEAEs (%) Vomiting: 13.0%
  Total number of TEAEs: 91
  Total number of TEAEs, at least possibly related (in brackets): (76)
40 to 200 μg once daily
  Typical adverse events expected from μ-opioid receptor agonists: starting to be present only at the top dose of 200 μg
[1]
  Change from overall baseline (pain intensity, NRS), ANCOVA: −2.37
  Change from overall baseline (pain intensity, NRS), descriptive statistics: −1.63
  Change from period baseline (pain intensity, NRS), ANCOVA: −2.25
  Change from period baseline (pain intensity, NRS), descriptive statistics: −1.74
[2]
  Change from overall baseline (pain intensity, NRS), ANCOVA: −2.04
  Change from overall baseline (pain intensity, NRS), descriptive statistics: −2.55
  Change from period baseline (pain intensity, NRS), ANCOVA: −1.78
  Change from period baseline (pain intensity, NRS), descriptive statistics: −2.18
[3]
  Change from overall baseline (pain intensity, NRS), ANCOVA: −2.39
  Change from overall baseline (pain intensity, NRS), descriptive statistics: −2.35
  Change from period baseline (pain intensity, NRS), ANCOVA: −1.78
  Change from period baseline (pain intensity, NRS), descriptive statistics: −1.91
[4]
  Change from overall baseline (pain intensity, NRS), ANCOVA: −2.68
  Change from overall baseline (pain intensity, NRS), descriptive statistics: −2.74
  Change from period baseline (pain intensity, NRS), ANCOVA: −1.78
  Change from period baseline (pain intensity, NRS), descriptive statistics: −1.63
[5]
  Change from overall baseline (pain intensity, NRS), ANCOVA: −2.0
  Change from overall baseline (pain intensity, NRS), descriptive statistics: −2.07
  Change from period baseline (pain intensity, NRS), ANCOVA: −1.9
  Change from period baseline (pain intensity, NRS), descriptive statistics: −2.01
All doses examined
  Dizziness: reported more frequently compared to placebo

Where two headings read alike, the source gives them in different places.
